Data on 1 compound can be found in patent publication US20220186210A1, “METHOD FOR I[…]” (priority 2019, published 2022).

The test concerns HeLa cells with PLK1 point mutations. The experiment in a line: Pooled ssODN point-mutation validation, BI2536 resistance (MTT viability). The note with it: PLK1 point mutation at R136, F183 or C67, pooled assay; BI2536 10 ng/ml, 72 hour; FIG. 10D. It is filed as cell-based.

Regarding `CC[C@@H]1C(=O)N(C)c2cnc(Nc3ccc(C(=O)NC4CCN(C)CC4)cc3OC)nc2N1C1CCCC1` [BI2536], the “cell susceptibility to BI2536” value was “conferred BI2536 resistance”.
